From patent US10166302B2, “Labeling composition for cancer lesion” (NATIONAL CANCER CENTER, priority 2012, dated 2019)

Experiments:
[1] = In vivo stability of near-infrared fluorescence of ICG-bound complexes injected into thigh of nude mice (Xenogen Lumina); conditions: 50 μl into thigh
Method: 50 μl of four complexes constructed in Example 3-2 were respectively injected into thigh of nude mice. Then, changes in near-infrared fluorescent signals generated in each nude mouse were measured by using Xenogen Lumina device for 3 weeks (FIG. 6). FIG. 6 is an image showing changes with the lapse of time in intensity of near-infrared fluorescent signals of ICG-HSA, ICG-MAA, ICG-MAA-fibrin and ICG-glycol chitosan complexes injected into the nude mice.

[2] = Diffusion level in mouse with lapse of time (subcutaneous injection, Xenogen Lumina); assay type: in vivo; conditions: nude mouse, point of injection vs two days after injection
Text: To investigate whether the results from Examples may be applied in vivo, a nude mouse was subcutaneously injected with the ICG-MAA-fibrin complex or ICG-MAA complex. […] FIG. 9 is an image showing diffusion levels of the ICG-MAA-fibrin complex and ICG-MAA complex injected into the nude mice with the lapse of time.

[3] = Signal intensity of near-infrared fluorescence of ICG-MAA complexes at various ICG and MAA mixing ratios; assay type: physicochemical
[4] = Near-infrared fluorescent signal of ICG measured by Safire II fluorescent device; assay type: physicochemical
Method: To investigate whether the constructed complex was normally labeled with Tc-99m, the complex was applied on instant thin layer chromatography (ITLC) and developed by using acetone as a solvent (FIG. 10). FIG. 10 is a graph showing a labeling rate of the complex in which MAA was bound to Tc-99m. […] In addition, a near-infrared fluorescent signal of ICG was measured by using Safire II fluorescent device (RFU 7,612).

[5] = Gamma imaging (animal SPECT) of nude mouse injected with [Tc-99m]Tc-ICG-HSA and [Tc-99m]Tc-ICG-MAA; assay type: in vivo; conditions: 1 mCi/50 μl into buttock
Method: 1 mCi/50 μl of the constructed complex ([Tc-99m]Tc-ICG-HSA) was injected into a right buttock of a nude mouse, and 1 mCi/50 μl of the complex constructed in Example 4-1 ([Tc-99m]Tc-ICG-MAA) was injected into a left buttock of the nude mouse. Then, a gamma image of the nude mouse was taken by using an animal SPECT device (NanoSPECT, Bioscan) at immediately after injection (0 h) and 20 hours after injection (20 h) (FIG. 11). FIG. 11 is an image showing changes in fluorescent signals with the lapse of time for each labeling agent in the mice respectively administered with [Tc-99m]Tc-ICG-MAA and [Tc-99m]Tc-ICG-HSA which are labeling agent for a cancer lesion.

[6] = Gamma imaging (animal SPECT) of nude mouse injected with [Tc-99m]Tc-MAA; assay type: in vivo; conditions: 1 mCi/50 μl into left buttock, immediately after (0 h) and 20 hours after (20 h) injection
Method: In addition, to investigate whether the constructed complex may be used as an in vivo labeling agent, an experiment was performed as follows: the constructed [Tc-99m]Tc-MAA 1 mCi/50 μl was injected into a left buttock of a nude mouse. A gamma image of the nude mouse was taken by using an animal SPECT device (NanoSPECT, Bioscan) at immediately after injection (0 h) and 20 hours after injection (20 h) (FIG. 3). FIG. 3 is a gamma image showing whether [Tc-99m]Tc-MAA is changed or not with the lapse of time in the nude mouse injected with [Tc-99m]Tc-MAA.

[7] = 20 hours after injection (20 h)
[8] = immediately after injection (0 h)

ICG-HSA: 65 μM of ICG added and reacted to human serum albumin (HSA)
Near-infrared fluorescent signal ([1]; after one week): rapidly reduced
Near-infrared fluorescent signal ([1]; after three weeks): almost no near-infrared fluorescent signal was detected

ICG-MAA: complex in which macroaggregated albumin (MAA) is bound to indocyanine green
Size of region exhibiting near-infrared fluorescent signal (diffusion level) [2]: increased with the lapse of time
Signal intensity of near-infrared fluorescence ([3]; ICG 6.5 μM, MAA 11.5 mg/ml): 979
Signal intensity of near-infrared fluorescence ([3]; ICG 9.0 μM, MAA 11.5 mg/ml): 942
Signal intensity of near-infrared fluorescence ([3]; ICG 12.9 μM, MAA 11.5 mg/ml): 915
Signal intensity of near-infrared fluorescence ([3]; ICG 25.8 μM, MAA 11.5 mg/ml): 563
Signal intensity of near-infrared fluorescence ([3]; ICG 38.7 μM, MAA 11.5 mg/ml): 366
Signal intensity of near-infrared fluorescence ([3]; ICG 64.5 μM, MAA 11.5 mg/ml): 244
Signal intensity of near-infrared fluorescence ([3]; ICG 64.5 μM, MAA […]): 75
Signal intensity of near-infrared fluorescence ([3]; ICG 77.4 μM, MAA 11.5 mg/ml): 182
Signal intensity of near-infrared fluorescence ([3]; ICG 103 μM, MAA 11.5 mg/ml): 94
Signal intensity of near-infrared fluorescence ([3]; ICG 103 μM, MAA […]): 39
Signal intensity of near-infrared fluorescence ([3]; ICG 258 μM, MAA 11.5 mg/ml): 60
Signal intensity of near-infrared fluorescence ([3]; ICG 258 μM, MAA […]): 30
Signal intensity of near-infrared fluorescence ([3]; ICG 516 μM, MAA 11.5 mg/ml): 20
Signal intensity of near-infrared fluorescence ([3]; ICG 516 μM, MAA […]): 2
Signal intensity of near-infrared fluorescence ([3]; ICG 774 μM, MAA 11.5 mg/ml): 9
Signal intensity of near-infrared fluorescence ([3]; ICG 1032 μM, MAA 11.5 mg/ml): 4
Signal intensity of near-infrared fluorescence ([3]; ICG […], MAA 11.5 mg/ml): 931
Near-infrared fluorescent signal ([1]; after three weeks): remained at a certain level

[Tc-99m]Tc-ICG-MAA: complex in which MAA was labeled with ICG and radioactive isotope Tc-99m
Near-infrared fluorescent signal of ICG [4]: 7,612 RFU
Location of the complex (gamma image) [5, 7]: continued to persistently remain in the injected lesion
Location of the complex (gamma image) [5, 8]: remained only in the injected lesion

[Tc-99m]Tc-ICG-HSA: human serum albumin labeled with ICG and Tc-99m, a typical labeling agent for a cancer lesion [reference compound]
Location of the complex (gamma image) [5, 7]: diffused into adjacent tissues so that the fluorescent signal became weaker
Location of the complex (gamma image) [5, 8]: remained only in the injected lesion

[Tc-99m]Tc-MAA: radioactive isotope-bound MAA complex from thiol MAA and [Tc-99m]TcO4−
Persistence of the complex in the injected lesion (gamma image) [6]: continued to persistently remain in the injected lesion
